Assay results reported in paper PMC3969666 (Pharmacognosy Magazine, 2014).

Tests used:
[1] = tested on: Caco-2 cell; assay: Caco-2 cell transport of PR; assay type: in vitro ADME; conditions: unpublished
[2] = ref 7 (Li et al., 2011); cited from earlier work

Phillyrin [PR]
apically loaded PR retained on the apical side [1]: about 100% | absorption in the gastrointestine [2]: neither carried out in the gastrointestine
